Experimental data: patent publication US6395494

By UniProt entry, the sequences of proteins in these tests, tags left out. Residues count along the entry.
UniProt P07200, 279-390 limits assumed: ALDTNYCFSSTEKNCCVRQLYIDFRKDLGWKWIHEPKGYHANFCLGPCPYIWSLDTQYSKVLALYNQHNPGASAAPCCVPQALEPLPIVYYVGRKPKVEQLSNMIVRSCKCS
UniProt P01137, 279-390 limits assumed: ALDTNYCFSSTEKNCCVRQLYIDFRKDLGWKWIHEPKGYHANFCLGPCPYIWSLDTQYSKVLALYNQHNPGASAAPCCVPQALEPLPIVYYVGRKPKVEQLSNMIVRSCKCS

Columns and labels:
[1] = target: purified porcine TGF-β1 (porcine) (UniProt P07200); test: active TGF-β sandwich ELISA, R2X capture, BDA47 detection; TGF-β concentration varied
[2] = target: recombinant human TGF-β1 (human) (UniProt P01137); test: as above
[3] = target: purified porcine TGF-β1 (porcine) (UniProt P07200); test: active TGF-β sandwich ELISA, R2X capture; TGF-β standards prepared in 1.4 µmol/L human α2-macroglobulin or 10% FCS

- half-maximal change in absorbance (ΔA50%) [1]: 680 pmol/L
- half-maximal change in absorbance (ΔA50%) [2]: 720 pmol/L
- change of ΔA50% against standards diluted in TBS [3]: < 10%
Substance: truncated extracellular domain of the type II TGF-beta receptor fused to glutathione-S-transferase (R2X) (from UniProt P37173 23-166)
